3 molecules from US20240410898A1, “METHOD FOR DETECTING PROTEIN HAVING CHANGES IN ENERGY STATE, OR AFFINITY OF LIGAND TO PROTEIN” (DALIAN INSTITUTE OF CHEMICAL PHYSICS, CHINESE ACADEMY OF …, priority 2022, published 2024) can be followed below.

By UniProt entry, the sequences of proteins in these tests, tags left out. Where a name states a change or a piece, a line headed by the entry shows the natural chain unless it says otherwise. Residues count along the entry.
UniProt P22102: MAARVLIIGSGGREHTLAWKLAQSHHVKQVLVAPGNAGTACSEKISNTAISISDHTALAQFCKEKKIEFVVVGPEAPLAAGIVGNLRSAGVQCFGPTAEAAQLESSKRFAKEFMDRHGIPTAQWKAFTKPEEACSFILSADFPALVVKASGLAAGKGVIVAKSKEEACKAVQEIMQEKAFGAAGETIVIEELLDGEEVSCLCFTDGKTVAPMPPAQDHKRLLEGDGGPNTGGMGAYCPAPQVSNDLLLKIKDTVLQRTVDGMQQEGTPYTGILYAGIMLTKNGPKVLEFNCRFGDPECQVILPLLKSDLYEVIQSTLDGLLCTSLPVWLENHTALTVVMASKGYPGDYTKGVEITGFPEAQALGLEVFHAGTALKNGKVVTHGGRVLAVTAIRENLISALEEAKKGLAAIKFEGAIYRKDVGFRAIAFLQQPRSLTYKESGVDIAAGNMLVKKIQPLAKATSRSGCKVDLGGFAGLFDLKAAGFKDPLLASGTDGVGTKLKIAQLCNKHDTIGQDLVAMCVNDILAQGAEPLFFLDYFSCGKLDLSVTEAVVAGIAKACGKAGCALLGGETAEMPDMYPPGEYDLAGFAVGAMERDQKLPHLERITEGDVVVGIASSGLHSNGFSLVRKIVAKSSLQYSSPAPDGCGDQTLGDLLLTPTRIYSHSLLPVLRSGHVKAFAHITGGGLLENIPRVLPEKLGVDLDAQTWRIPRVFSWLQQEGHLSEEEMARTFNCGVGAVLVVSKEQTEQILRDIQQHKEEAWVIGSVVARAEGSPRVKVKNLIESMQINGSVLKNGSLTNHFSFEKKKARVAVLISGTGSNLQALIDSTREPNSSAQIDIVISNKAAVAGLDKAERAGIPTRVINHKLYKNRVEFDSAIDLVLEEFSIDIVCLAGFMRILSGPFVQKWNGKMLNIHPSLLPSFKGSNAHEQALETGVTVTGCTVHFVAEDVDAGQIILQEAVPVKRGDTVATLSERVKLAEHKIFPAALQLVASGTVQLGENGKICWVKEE
UniProt Q12931, 60-704: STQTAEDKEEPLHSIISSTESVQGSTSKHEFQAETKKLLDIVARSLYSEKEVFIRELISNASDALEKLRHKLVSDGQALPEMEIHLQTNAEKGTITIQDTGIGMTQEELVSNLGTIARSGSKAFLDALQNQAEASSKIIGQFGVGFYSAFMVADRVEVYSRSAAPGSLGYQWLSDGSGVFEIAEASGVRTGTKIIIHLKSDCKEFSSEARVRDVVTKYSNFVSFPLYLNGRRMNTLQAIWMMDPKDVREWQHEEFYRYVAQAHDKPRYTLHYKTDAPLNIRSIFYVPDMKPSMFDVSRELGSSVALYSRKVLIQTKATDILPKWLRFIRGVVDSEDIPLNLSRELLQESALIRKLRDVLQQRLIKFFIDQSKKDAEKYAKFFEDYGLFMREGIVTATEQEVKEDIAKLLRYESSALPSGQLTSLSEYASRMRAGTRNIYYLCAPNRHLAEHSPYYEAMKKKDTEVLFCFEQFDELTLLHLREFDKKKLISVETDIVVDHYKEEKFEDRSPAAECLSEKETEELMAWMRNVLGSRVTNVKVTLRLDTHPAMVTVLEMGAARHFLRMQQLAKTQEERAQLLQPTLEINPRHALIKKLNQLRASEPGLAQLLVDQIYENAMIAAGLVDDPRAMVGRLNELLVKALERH

The target in one assay is GART (Homo sapiens, UniProt P22102). The following applies: 10 μM MTX, HeLa cell lysate.
A further assay concerns the target TRAP1 (Homo sapiens, UniProt Q12931). The conditions noted are these: 100 μM.
In assay [1] the test system is proteins in HeLa cell lysate. The following applies: 2 mM αKG.

For the molecule `CN(Cc1cnc2nc(N)nc(N)c2n1)c1ccc(C(=O)N[C@@H](CCC(=O)O)C(=O)O)cc1` [MTX, methotrexate], the “energy state change of GART” value at GART was “shows energy state changes exclusively through PELSA”.

On to `CC(C)c1cc(-c2n[nH]c(=O)n2-c2ccc3c(ccn3C)c2)c(O)cc1O` [ganetespib], for which, on TRAP1, the “identification of TRAP1 as binding protein” value is listed as “specifically identified as a binding protein of ganetespib”. On to alpha-ketoglutarate [αKG], for which the “number of stabilized proteins that are known αKG target proteins” value in assay [1] stood at 30.
